Drawing on publication PMC12186253, “Grafted Coiled-Coil Peptides as Multivalent Scaffolds for Protein Recognition” (ACS Chemical Biology, 2025), this text covers IC50 for 1 compound.

The chains behind the UniProt entries cited, without tags or fusion partners. Residues count along the entry.
UniProt Q07820, 172-327: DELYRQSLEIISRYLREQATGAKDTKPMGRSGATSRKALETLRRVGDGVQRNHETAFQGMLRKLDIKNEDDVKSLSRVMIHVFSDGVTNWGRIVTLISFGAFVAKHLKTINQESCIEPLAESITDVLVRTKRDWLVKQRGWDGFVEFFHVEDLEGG

The target of the assay is T1, FAM-Ahx-BID/MCL-1 complex (Homo sapiens, UniProt Q07820).
T1 construct: residues 172 – 327; His6-SUMO (N, cleaved yes); made in house; host or cells: E. coli BL21-Gold (pET28a)
Kind of assay: Fluorescence anisotropy competition assay, FAM-Ahx-BID/MCL-1. Format: binding. The text has this:
(1 picture or pasted object on this page, not shown here) […]
Background: In fluorescence polarisation assays a small probe gives low polarisation when free and higher when bound to something large.

The compound `CC[C@H](C)[C@H](NC(=O)[C@H](CCCNC(=N)N)NC(=O)[C@H](CCCNC(=N)N)NC(=O)[C@H](CC(C)C)NC(=O)[C@H](CCC(N)=O)NC(=O)[C@H](C)NC(=O)[C@H](C)NC(C)=O)C(=O)NCC(=O)N[C@@H](CC(=O)O)C(=O)N[C@@H](CCCCN)C(=O)N[C@H](C(=O)N[C@@H](CC(N)=O)C(=O)N[C@@H](CC(C)C)C(=O)N[C@@H](CCCNC(=N)N)C(=O)N[C@@H](CCC(N)=O)C(=O)N[C@@H](CCCCN)C(=O)N[C@@H](CC(C)C)C(=O)N[C@@H](CC(C)C)C(=O)N[C@@H](CC(N)=O)C(N)=O)C(C)C` [NOXA-B, reference compound] registered an IC50 of 400 ± 100 nM.

What is called IC50 is the concentration at which inhibition is half-maximal. Read a high IC50 as weaker potency.
